According to article PMC8243516, “Inhibition of lysosomal phospholipase A2 predicts drug-induced phospholipidosis” (Journal of Lipid Research, 2021):

Experiments:
[1] = target: T1, LPLA2 (Mus musculus, UniProt Q8VEB4); experiment: LPLA2 thermal stability measurement (SYPRO Orange Tm)
T1 sequence (Q8VEB4 34-412): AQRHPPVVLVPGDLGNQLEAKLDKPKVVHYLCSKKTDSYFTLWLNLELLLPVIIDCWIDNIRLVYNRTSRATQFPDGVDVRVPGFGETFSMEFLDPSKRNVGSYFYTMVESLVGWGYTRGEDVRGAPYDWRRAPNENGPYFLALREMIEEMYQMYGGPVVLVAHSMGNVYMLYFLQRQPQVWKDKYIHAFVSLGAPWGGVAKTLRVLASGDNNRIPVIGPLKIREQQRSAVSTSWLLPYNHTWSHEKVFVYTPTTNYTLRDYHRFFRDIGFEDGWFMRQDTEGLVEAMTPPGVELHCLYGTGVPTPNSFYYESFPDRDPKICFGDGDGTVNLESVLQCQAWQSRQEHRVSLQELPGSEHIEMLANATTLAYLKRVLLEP

[2] = test system: MDCK cells; experiment: Screening phospholipidosis assay (LipidTOX Red / NucBlue Live fluorescence ratio); details: LipidTOX Red to NucBlue Live fluorescence ratio, 24 h
[3] = target: T2, recombinant mouse LPLA2 (PLA2G15) (Mus musculus, UniProt Q8VEB4); experiment: Transacylase activity of LPLA2 (1-O-acyl-N-acetylsphingosine synthase, cell-free liposome assay); details: LPLA2 IC50, 1-O-acyl N-acetylsphingosine synthase activity, pH 4.5, DOPC/sulfatide liposomes
T2 sequence (Q8VEB4 34-412): T1 sequence (Q8VEB4 34-412)

(ΔTm)c-(ΔTm)d, difference in melting temperature of LPLA2 alone or in the presence of drug ([1]; N=3 ± SD)	SMILES	Ratio (15 μM) [2]	other results
0.30 ± 0.1 °C	CN1[C@@H]2CC[C@H]1C[C@@H](OC(c1ccccc1)c1ccccc1)C2 [Benztropine]		
0.12 ± 0.5 °C	CN(C)CCC=C1c2ccccc2COc2ccccc21 [Doxepin, dimethyl(3-{9-oxatricyclo[9.4.0.0ˆ[1]]pentadeca-1(15),3,5,7,11,13-hexaen-2-ylidene}propyl)amine]		
1.07 ± 0.1 °C	CCN(CC)CCOc1ccc(C(=C(Cl)c2ccccc2)c2ccccc2)cc1 [Clomifene]	0.38	

Continued, compound first:

SMILES	(ΔTm)c-(ΔTm)d, difference in melting temperature of LPLA2 alone or in the presence of drug ([1]; N=3 ± SD)	Ratio (15 μM) [2]	other results
C[C@]12C[C@H](O)[C@H]3[C@@H](CCC4=CC(=O)CC[C@@]43C)[C@@H]1CC[C@@H]2C(=O)CO [Corticosterone, (1S,2R,10S,11S,14S,15S,17S)-17-hydroxy-14-(2-hydroxyacetyl)-2,15-dimethyltetracyclo[8.7.0.0^2,^7.0^11,^15]heptadec-6-en-5-one]		0.28	
CSC(=N)N [S-methylisothiourea]		0.38	
C[C@]12C=CC(=O)N[C@@H]1CC[C@@H]1[C@@H]2CC[C@]2(C)[C@@H](C(=O)Nc3cc(C(F)(F)F)ccc3C(F)(F)F)CC[C@@H]12 [Dutasteride, (1S,2R,7R,10S,11S,14S,15S)-N-[2,5-bis (trifluoromethyl)phenyl]-2,15-dimethyl-5-oxo-6-azatetracyclo[8.7.0.0^2,^7.0^11,^15]heptadec-3-ene-14-carboxamide]			(ΔTm)c-(ΔTm)d, difference in melting temperature of LPLA2 alone or in the presence of drug [1]: -0.45 ± 0.0 °C
c1ccc2c(CC3=NCCN3)cccc2c1 [Naphazoline, 2-(naphthalen-1-ylmethyl)-4,5-dihydro-1H-imidazole]	0 °C		pIC50 [3]: 5.16

pIC50: −log10 of the molar value. Read-outs that look alike come from different tables or passages of the source.
